This data set in a line: Water solubility of the prepared compound. Type of data set: physicochemical.
As to Bismuth iodiscorbate, the solubility in water result was “water soluble”.

On to Potassium Iodiscorbate [Compound K], for which the solubility in water entry is reported as “water soluble”.

Consider Zinc Iodiscorbate [Compound Z], for which the solubility in water entry was “water soluble”.

Values taken from patent US20030181436A1, “Treatment for AIDS, HIV, and other related diseases and compounds for use therewith” (priority 2001, published 2003).
